From patent US20100216706A1, “Ghrelin Protects Substantia Nigra Dopamine Neurons” (priority 2007, published 2010)

Sequences of proteins named here, by UniProt entry; tags and fusion partners are left off. A change or cut given only in a name is not applied to a line headed by its entry.
UniProt O08725, whole entry: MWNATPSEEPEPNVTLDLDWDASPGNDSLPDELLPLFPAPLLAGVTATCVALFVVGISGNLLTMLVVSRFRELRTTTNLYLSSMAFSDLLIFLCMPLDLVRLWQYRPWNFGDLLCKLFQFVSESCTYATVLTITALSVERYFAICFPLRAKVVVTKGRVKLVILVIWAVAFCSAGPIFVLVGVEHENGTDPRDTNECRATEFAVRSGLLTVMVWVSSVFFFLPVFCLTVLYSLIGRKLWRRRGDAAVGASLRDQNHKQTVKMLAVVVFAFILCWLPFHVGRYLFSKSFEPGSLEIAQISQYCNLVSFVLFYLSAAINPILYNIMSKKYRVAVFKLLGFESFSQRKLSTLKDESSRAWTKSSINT
UniProt Q9UBU3: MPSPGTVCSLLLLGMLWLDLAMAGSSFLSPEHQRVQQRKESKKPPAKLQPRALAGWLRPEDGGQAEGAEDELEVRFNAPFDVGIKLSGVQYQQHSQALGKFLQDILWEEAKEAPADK

What was measured:
[1] = test system: UCP2-dependent mitochondrial respiration; test: Uncoupled mitochondrial respiration in pooled midbrain of UCP2 wt or ko mice; type: in vivo; details: ghrelin IP 30 nmol, 3 hours; ko saline 3 17.0±12.7
Procedure: Mitochondrial respiration: The ability of ghrelin to promote mitochondrial respiration was examined in mitochondria isolated from midbrain of ghrelin-treated rats (30 nmol) three hours after injection. Rats were used as the mitochondrial yield after isolation is much higher than the yield from mice. Mitochondrial respiration was also examined in the pooled midbrain of UCP2 ko and wt mice (3 pooled brains), 3 hours after ghrelin injection (IP 30 nmol).
Mitochondria were pooled from the SN-VTA (4 animals=1, total n=4) and isolated by differential centrifugation. […] Protein concentrations were determined with a BCA protein assay kit (Pierce, Rockford, Ill., USA).
Mitochondrial respirations were assessed using a Clark-type oxygen electrode (Hansatech Instruments, Norfolk, England) at 37° C. with pyruvate and malate (5 mM and 2.5 mM) as oxidative substrates in respiration buffer (215 mM Mannitol, 75 mM sucrose, 0.1% fatty acid free BSA, 20 mM Hepes, 2 mM MgC1, 2.5 mM KH2PO4, pH adjusted to 7.2 with KOH). Following the addition of ADP and oligomycin, UCP-mediated proton conductance was measured as increased fatty acid-induced respiration (Echtay et al., 2002), which was then compared to state 4 respiration induced by oligomycin, an inhibitor of H^+ transporting ATP synthase.
It was determined that GHSRs are expressed on UCP2 neurons in the SNpc. […]

[2] = target: T1, substantia nigra pars compacta (SNpc) cells / GHSR (Rattus norvegicus, UniProt O08725); test: Biotinylated ghrelin binding on brain slices containing the SNpc
T1 construct: saline-perfused rat brains (n=4) were removed, sectioned, and immediately reacted with biotinylated ghrelin; from tissue; host or cells: wild-type rat brain sections (100 µm) containing the substantia nigra pars compacta
Description: Biotinylated ghrelin binding in the SN: To test whether ghrelin binds to cells in the substantia nigra, 100 μm sections containing these regions were processed for binding studies as described previously (Cowley et al., 2003, Neuron 37: 649-61).
Briefly, saline-perfused rat brains (n=4) were removed, sectioned, and immediately reacted with biotinylated ghrelin (1M; Phoenix Pharmaceuticals, Belmont, Calif.) alone or in combination with an equal amount of unlabeled (cold) ghrelin (1M; Phoenix Pharmaceuticals) for 20 minutes at 4° C. Sections were fixed with 4% paraformaldehyde and reacted with avidin-Texas red and analyzed using a Zeiss microscope equipped with fluorescent filters.
To study ghrelin binding on rat brain slices containing the substantia nigra pars compacta (SNpc), brain sections were reacted with biotinylated ghrelin.

CN1CC=C(c2ccccc2)CC1 [MPTP, 1-methyl-4-phenyl-1,2,5,6 tetrahydropyridine]
FCCP-driven respiration, UCP2 ko mice [1]: 363.5±3.8

Biotinylated ghrelin: biotinylated ghrelin from Phoenix Pharmaceuticals used for binding studies (GSSFLSPEHQRVQQRKESKKPPAKLQPR; Ghrelin-28 biotin; UniProt Q9UBU3 24-51, looked up)
Biotinylated ghrelin binding with unlabelled ghrelin added ([2]; equal amount of unlabelled ghrelin in the incubation solution): No binding was observed
Biotinylated ghrelin binding in the SNpc ([2]; rat brain sections, biotinylated ghrelin alone): binding was observed throughout the SNpc
